1 compound from US20140336193A1, “POTENT NON-UREA INHIBITORS OF SOLUBLE EPOXIDE HYDROLASE” (priority 2012, published 2014) can be followed below.

Molecules are shown by their SMILES.

This series is described as follows: In vitro human liver microsomal metabolic stability (Example 4). The series is classed as in vitro ADME. Conditions: microsomes. The procedure: The stability of sEH inhibitors in a human liver microsomal assay was determined as a predictor of in vivo oxidative metabolism. Microsomal stability was assessed in pooled human liver microsomes (Celsis, Edison, N.J.). All reactions were carried out for 90 min at 37° C. in an NADPH-generating system consisting of glucose 6-phosphate, glucose 6-phosphate dehydrogenase, and NADP^+ (Sigma, St. Louis, Mo.). Positive control incubations proceeded with 7-ethoxycoumarin as the substrate. Reactions were terminated by adding methanol. The mixtures were centrifuged and the supernatants were evaporated. The residues were reconstituted in mobile phase (85% ACN; 15% H2O) and subjected to LC/MS analysis.
In general terms: Liver microsomes are a subcellular fraction often used to study metabolism.

Regarding `Cc1ccc(S(=O)(=O)N2CCC(C(=O)NC3CCCCCC3)CC2)c(C)c1` [Compound 2], the “CLint, app” value is 220 mL/min/kg and the “hLM t1/2” value worked out at 5.5 min.
